Results as given in patent publication US10570075B2, “Compounds” (DSM IP ASSETS B.V., priority 2015, dated 2020).

By UniProt entry, the sequences of proteins in these tests, tags left out. Residues count along the entry.
UniProt P11473, 127-423 limits assumed: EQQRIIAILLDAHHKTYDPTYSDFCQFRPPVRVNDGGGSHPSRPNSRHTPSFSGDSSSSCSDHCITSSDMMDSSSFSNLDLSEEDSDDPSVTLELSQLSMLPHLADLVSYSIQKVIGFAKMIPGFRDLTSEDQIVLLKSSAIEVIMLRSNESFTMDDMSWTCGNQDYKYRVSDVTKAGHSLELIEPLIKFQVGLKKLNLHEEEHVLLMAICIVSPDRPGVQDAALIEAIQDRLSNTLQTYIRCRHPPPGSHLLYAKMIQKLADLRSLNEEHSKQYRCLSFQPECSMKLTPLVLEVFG

Molecular target: human vitamin D receptor (VDR) (Homo sapiens, UniProt P11473)
Experiment: Human vitamin D receptor (VDR) agonist activity, GAL4-VDR LBD luciferase transactivation assay in HEK293 cells
Details: read-out: Effective concentrations of half maximal activation (EC50); transiently transfected HEK293 cells, VDR LBD-GAL4 DBD hybrid receptor, pFR-Luc luciferase reporter, 16 h incubation

- pEC50: 7.77
Structure (SMILES): CC/C(=C\C=C\C(O)(C(F)(F)F)C(F)(F)F)c1cccc(CCc2ccc(CO)c(CO)c2)c1

pEC50: −log10 of the molar value.
